Conditions: IV twice weekly 0.2, 2.0 or 10.5 mg/kg/dose, 4 weeks

B1: PEGPH20 (protein)
chain: LNFRAPPVIPNVPFLWAWNAPSEFCLGKFDEPLDMSLFSFIGSPRINATGQGVTIFYVDRLGYYPYIDSITGVTVNGGIPQKISLQDHLDKAKKDITFYMPVDNLGMAVIDWEEWRPTWARNWKPKDVYKNRSIELVQQQNVQLSLTEATEKAKQEFEKAGKDFLVETIKLGKLLRPNHLWGYYLFPDCYNHHYKKPGYNGSCFNVEIKRNDDLSWLWNESTALYPSIYLNTQQSPVAATLYVRNRVREAIRVSKIPDAKSPLPVFAYTRIVFTDQVLKFLSQDELVYTFGETVALGASGIVIWGTLSIMRSMKSCLLLDNYMETILNPYIINVTLAAKMCSQVLCQEQGVCIRKNWNSSDYLHLNPDNFAIQLEKGGKFTVRGKPTLEDLEQFSEKFYCSCYSTLSCKEKADVKDTDAVDVCIADGVCIDAFLKPPMETEEPQIFY
  tolerability of twice-weekly IV administration: well tolerated

— US9878046B2, “Adverse side-effects associated with administration of an anti-hyaluronan agent and methods for ameliorating or preventing the side-effects” (Halozyme, Inc., priority 2010, dated 2018)
